This assay has as its target cGMP-specific PDE-5 (UniProt O76074). In words: PDE-5 inhibition, batch method or scintillation proximity assay. It counts as biochemical, human. Particulars: activity against PDE-5, representative preferred compounds. Background: SPA uses beads or plates that emit light when radiolabelled molecules are held near them.

This is an account of results in patent publication US7262192B2, “Substituted pyrazolo[4,3-d]pyrimidines and their use as PDE-5 inhibitors” (Pfizer Inc., priority 2003, dated 2007).

By IC50 is commonly meant the concentration at which inhibition is half-maximal. Lower therefore signals greater potency in that assay.

Molecule `Cc1cc(Nc2nc(N(C)C3CCN(C)CC3)nc3c(C)nn(CCOCC(F)(F)F)c23)ncn1` returned an IC50 (tested form: HCl) of 0.47 nM. Molecule `Cc1nn(CCOCC(F)(F)F)c2c(Nc3ccncn3)nc(N3CCN[C@H](C)C3)nc12` displayed an IC50 of 0.2 nM.
